The values that follow are results of earlier work, collected in patent US10023652B2, “Method of targeting glycoproteins to treat cancer” (Board of Regents of the University of Nebraska, priority 2013, dated 2018).

This data set deals with breast cancer patients. The following applies: along with cytotoxic agents; cited from earlier work.

As for Herceptin: ErbB2-specific mAb, the overall patient survival entry is “significant improvement in overall patient survival”.
